Our source for the EC50 values is patent US20260139049A1 (published 2026).

One assay concerns the target T1, MKN7 (human, UniProt P56747 1-220).
T1 chain: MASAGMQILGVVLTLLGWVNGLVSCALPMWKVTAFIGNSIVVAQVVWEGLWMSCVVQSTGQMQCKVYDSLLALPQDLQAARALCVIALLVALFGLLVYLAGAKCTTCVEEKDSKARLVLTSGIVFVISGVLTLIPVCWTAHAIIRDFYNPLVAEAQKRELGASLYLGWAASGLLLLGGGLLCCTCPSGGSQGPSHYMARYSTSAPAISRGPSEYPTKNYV
The assay is described as follows: FACS; MKN7 cells.

A further assay addresses T2, OVCA429 (human, UniProt P56747 1-220).
T2 chain: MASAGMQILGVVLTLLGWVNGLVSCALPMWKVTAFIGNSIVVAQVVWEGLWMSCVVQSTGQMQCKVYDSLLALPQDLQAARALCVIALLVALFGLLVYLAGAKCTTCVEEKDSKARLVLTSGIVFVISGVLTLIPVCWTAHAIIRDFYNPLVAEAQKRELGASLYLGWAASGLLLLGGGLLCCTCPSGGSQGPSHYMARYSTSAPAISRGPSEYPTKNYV
The assay is described as follows: FACS; OVCA429 cells.

B1: AB3-7 (antibody, V domains shown)
VH: EVQLLESGGGLVQPGGSMRLSCAASGFTFSNYWMNWVRQAPGKGLEWVAQIRLKSDNYATHYADSVKGRFTISRDDSKNTVYLQMNSLRAEDTGVYYCNDGPPSGSWGQGTLLTVSS
VL: DIQMTQSPSSLSASVGDRVTITCRISENIYSYLAWYQQKPGKAPKLLVYNAKILVEGVPSRFSGSGSGTDFTLTISSLQPEDFGTYYCQHHYTVPWTFGQGTKLEIK
On to B1, for which the EC50 with MKN7 turned out to be 26.3 µg/mL; with OVCA429, 21.9 µg/mL.
